Data on one substance can be found in patent publication US8957024B2, “Composition and methods for reducing opioid-induced pruritus” (priority 2011, dated 2015).

In the assay the test system is HEK 293 cells co-expressing MOR1D and GRPR.

D-Phe-6-Bn(6-13)OMe [GRPR antagonist]: the “effect on GRP-induced calcium spikes” value is listed as “completely blocked”.
